# Measured values: article PMC8691691 (ACS Chemical Neuroscience, 2021)
# Where a chain is given by its changes, count along the chain named.
# Key:
# GlyT2 G214L mutant = biological target: T1, GlyT2 G214L mutant (Rattus norvegicus, UniProt P58295, G214L); test: [3H]glycine transport by GlyT2 mutant in COS7 cells; format: cell-based
# T1 construct: expressed in transfected cells; host or cells: COS7
# T1 sequence (P58295 1-799 G214L): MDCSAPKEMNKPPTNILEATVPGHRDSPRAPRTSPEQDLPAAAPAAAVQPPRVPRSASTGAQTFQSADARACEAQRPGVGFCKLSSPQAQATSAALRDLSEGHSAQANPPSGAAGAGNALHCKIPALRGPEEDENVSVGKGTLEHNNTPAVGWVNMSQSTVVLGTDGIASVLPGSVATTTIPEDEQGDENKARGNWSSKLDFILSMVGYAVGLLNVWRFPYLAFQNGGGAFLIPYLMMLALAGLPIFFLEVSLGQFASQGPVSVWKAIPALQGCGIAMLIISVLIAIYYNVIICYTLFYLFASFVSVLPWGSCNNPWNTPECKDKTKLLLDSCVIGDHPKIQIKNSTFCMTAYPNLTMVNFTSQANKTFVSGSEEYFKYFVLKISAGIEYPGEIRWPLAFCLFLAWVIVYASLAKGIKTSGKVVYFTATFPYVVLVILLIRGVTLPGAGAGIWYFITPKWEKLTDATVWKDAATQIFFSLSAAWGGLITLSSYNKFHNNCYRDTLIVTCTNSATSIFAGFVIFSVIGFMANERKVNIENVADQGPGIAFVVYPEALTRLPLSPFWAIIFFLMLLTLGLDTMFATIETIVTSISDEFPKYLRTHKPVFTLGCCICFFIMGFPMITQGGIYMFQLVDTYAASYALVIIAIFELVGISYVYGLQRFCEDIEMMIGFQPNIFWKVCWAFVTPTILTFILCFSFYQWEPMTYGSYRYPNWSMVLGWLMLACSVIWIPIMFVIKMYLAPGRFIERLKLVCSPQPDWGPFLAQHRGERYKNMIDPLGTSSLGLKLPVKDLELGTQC
# GlyT2 T584F mutant = biological target: T2, GlyT2 T584F mutant (Rattus norvegicus, UniProt P58295, T584F); test: as above; format: cell-based
# T2 construct: expressed in transfected cells; host or cells: COS7
# T2 sequence (P58295 1-799 T584F): T1 sequence (P58295 1-799 G214L) with L214G, T584F
smiles,measurement,setting,value
"NCC(=O)O [Gly, glycine]",EC50,GlyT2 G214L mutant,78 ± 12 µM
same,EC50,GlyT2 T584F mutant,180 ± 0.6 µM
